According to US20130017199A1, “SIMULTANEOUS INHIBITION OF PD-L1/PD-L2” (AMPLIMMUNE ,Inc. a corporation, priority 2009, published 2013):

Target: T1, mouse PD-1-Ig (extracellular domain of mouse PD-1 linked to the Fc portion of mouse IgG2a) (mouse, UniProt Q02242 25-169)
T1 construct: also called mPD-1; not shown: Fc portion of mouse IgG2a
T1 sequence: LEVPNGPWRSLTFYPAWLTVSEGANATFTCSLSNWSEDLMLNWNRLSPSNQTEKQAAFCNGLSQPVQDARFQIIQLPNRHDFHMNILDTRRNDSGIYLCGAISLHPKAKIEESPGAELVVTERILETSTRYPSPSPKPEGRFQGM
Assay: capture ELISA; PD-1-Ig coated on plate, COS supernatant, anti-human IgG-HRP

- PD-1 binding ELISA (%): 0.3%
B1: mouse B7-DC-Ig D111S (Fc fusion)
chain: LFTVTAPKEVYTVDVGSSVSLECDFDRRECTELEGIRASLQKVENDTSLQSERATLLEEQLPLGKALFHIPSVQVRDSGQYRCLVICGAAWSYKYLTVKVKASYMRIDTRILEVPGTGEVQLTCQARGYPLAEVSWQNVSVPANTSHIRTPEGLYQVTSVLRLKPQPSRNFSCMFWNAHMKELTSAIIDPLSRMEPKVPRTW
notes: Variant of m1; construct as in its note; also called mB7-DC variant; not shown: CH2-CH3 portion of human IgG1
